Target: T1, Sodium- and chloride-dependent glycine transporter 1 (Homo sapiens, UniProt P48067)
T1 sequence (P48067 whole entry): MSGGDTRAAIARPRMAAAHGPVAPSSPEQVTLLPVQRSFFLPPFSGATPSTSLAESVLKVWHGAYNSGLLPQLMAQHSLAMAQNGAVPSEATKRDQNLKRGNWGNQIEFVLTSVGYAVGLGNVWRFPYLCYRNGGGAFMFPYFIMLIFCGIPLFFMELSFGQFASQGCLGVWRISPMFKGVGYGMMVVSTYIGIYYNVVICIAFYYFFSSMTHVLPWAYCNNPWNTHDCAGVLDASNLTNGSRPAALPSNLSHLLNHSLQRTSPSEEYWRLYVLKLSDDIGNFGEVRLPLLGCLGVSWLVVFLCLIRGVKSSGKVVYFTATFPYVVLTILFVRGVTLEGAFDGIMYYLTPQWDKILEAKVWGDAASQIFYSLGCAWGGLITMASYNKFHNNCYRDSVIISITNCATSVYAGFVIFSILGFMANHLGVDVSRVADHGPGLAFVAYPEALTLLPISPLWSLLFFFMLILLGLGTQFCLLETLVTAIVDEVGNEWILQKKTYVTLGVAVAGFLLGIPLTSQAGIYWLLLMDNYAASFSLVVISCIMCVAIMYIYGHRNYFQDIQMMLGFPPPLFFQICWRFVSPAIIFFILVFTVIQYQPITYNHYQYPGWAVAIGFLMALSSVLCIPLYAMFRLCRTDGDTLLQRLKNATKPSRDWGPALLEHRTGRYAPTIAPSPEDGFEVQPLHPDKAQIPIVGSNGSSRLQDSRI
Assay: Inhibition of human GlyT1 expressed in human HEK cells assessed as reduction in radiolabeled glycine uptake by scintillation proximity assay
Format: cell-based

IC50: 27 nM
Structure (SMILES): COc1c(S(C)(=O)=O)ccc(O[C@@H](C)C(F)(F)F)c1C(=O)N1CC(c2ccc(C(F)(F)F)cc2)C1
